Tested on: hepatoma cell line HepG2
Experiment: Survival of hepatoma cell line HepG2 in serum-free culture (viable cell count after 3 days)
Format: cell-based
Method: Two mL cell suspension of hepatoma cell line HepG2 dispersed in trypsin (5×10^5 cells) were inoculated on six multi-well plates and pre-culture by using Dulbecco's modified Eagle medium (DMEM) containing 5% fetal bovine serum, 1.6 g/L sodium hydrogencarbonate, 0.584 g/L L-glutamine, and 0.08 g/L kanamycin sulfate at 37° C. in a 5% CO2 gas phase. After one day, the broth was recovered, the cell surfaces were washed with serum-free medium, and the culture was continued for another 3 days with the addition of medium containing 5%, 0% fetal bovine serum, and 2 mL of fresh medium comprising the growth factors and hormones given in Table 1, which have been reported as survival factors, and antithrombin III, albumin, orosomucoid, transferrin, or typical serum proteins such as α1-antitrypsin, which were added to media containing no fetal bovine serum (0%). The viable cell count was assayed after 3 days of culture.
The hepatoma cell line HepG2 was pre-cultured in the same manner as in Example 1. After 1 day, the broth was recovered, the cell surfaces were washed with serum-free medium, and the culture was continued for another 3 days with the addition of medium containing 5%, 0% fetal bovine serum, or 2 mL of fresh medium comprising antithrombin III added in concentrations ranging from 1 to 25 μg/mL to media containing no fetal bovine serum (0%). […]

Substance: Albumin: typical serum protein used for comparison
- Survival rate (HepG2, DMEM without fetal bovine serum, additive 225 μg/ml): 65.0%
- Effect in controlling cell death (in words) (HepG2, serum-free medium, concentration not given): virtually no effect in controlling cell death
